Values quoted from earlier work in PMC6261661 (ACS chemical neuroscience, 2018).

Chains of the proteins cited; added tags and fusions are not shown. Lines headed by an entry give the natural chain unless they say otherwise; changes in a name come on top.
UniProt P33033: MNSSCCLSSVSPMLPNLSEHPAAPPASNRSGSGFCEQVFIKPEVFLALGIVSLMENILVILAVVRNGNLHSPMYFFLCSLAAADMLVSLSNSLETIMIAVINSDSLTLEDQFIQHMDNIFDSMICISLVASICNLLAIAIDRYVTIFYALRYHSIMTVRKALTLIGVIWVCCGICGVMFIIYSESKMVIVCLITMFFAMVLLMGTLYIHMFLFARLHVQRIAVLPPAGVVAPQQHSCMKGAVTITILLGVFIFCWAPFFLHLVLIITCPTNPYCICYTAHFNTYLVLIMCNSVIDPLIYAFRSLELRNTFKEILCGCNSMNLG

Molecular target: mMC3R (Mus musculus, UniProt P33033)
Conditions: reference peptide from the literature; ref [32]; cited from earlier work

For “Ac-His-(pI)DPhe-Arg-Trp-NH2 [Peptide 45]”, the “mMC3R pA2” value is given as 7.3±0.2.
